According to publication PMC6208348:

How the values were obtained:
Assay in all cases: FP
Settings in all cases: domain or fragment
EGFR-pTyr1086 = target: EGFR-pTyr1086
Shc1-pTyr317 = target: Shc1-pTyr317
[1] = target: DnaJ-A1-pTyr381 ∆N peptide (human) (UniProt P31689)
MidT-pTyr324 = target: MidT-pTyr324
Shc1-pTyr239 = target: Shc1-pTyr239
VCP-pTyr805-tail7 = target: VCP-pTyr805-tail7

Row | Substance | Kd (EGFR-pTyr1086) [µM] | Kd (Shc1-pTyr317) [µM] | Kd [1] [µM] | Kd (MidT-pTyr324) [µM] | Kd (Shc1-pTyr239) [µM] | Kd (VCP-pTyr805-tail7) [µM]
1 | L. longbeachae LUSH SH2 domain (Ser3-Ser171) | 1.64 |  |  |  |  | 
2 | L. pneumophila RavO SH2 domain (Gly212-Asp406) (from UniProt Q5ZWF6 212-406) | 7.06 | 1.14 | 17.6 | 6.6 | 0.2 | 10.1
